Drawing on PMC9920749, “In Vitro and In Silico Studies of Neolignans from Magnolia grandiflora L. Seeds against Human Cannabinoids and Opioid Receptors” (Molecules, 2023), this text covers IC50 and Ki for one molecule.

Sequences of proteins named here, by UniProt entry; tags and fusion partners are left off.
UniProt P21554, whole entry: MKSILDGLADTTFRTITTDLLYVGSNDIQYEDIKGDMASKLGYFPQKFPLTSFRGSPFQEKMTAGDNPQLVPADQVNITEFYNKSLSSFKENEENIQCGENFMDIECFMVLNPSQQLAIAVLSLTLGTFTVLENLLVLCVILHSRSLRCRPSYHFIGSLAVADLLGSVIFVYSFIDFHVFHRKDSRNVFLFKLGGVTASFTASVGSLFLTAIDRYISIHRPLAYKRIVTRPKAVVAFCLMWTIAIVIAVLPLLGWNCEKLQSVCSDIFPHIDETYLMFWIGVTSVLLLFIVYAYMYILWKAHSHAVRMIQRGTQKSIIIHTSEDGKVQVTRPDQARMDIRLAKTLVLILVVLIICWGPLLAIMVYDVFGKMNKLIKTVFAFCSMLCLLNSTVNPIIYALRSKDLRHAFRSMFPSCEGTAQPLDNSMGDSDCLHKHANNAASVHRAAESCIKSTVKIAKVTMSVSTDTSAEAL

One may read the IC50 as the midpoint of a concentration-inhibition curve. Broadly, the Ki is the dissociation constant of the complex between target and ligand, obtained from inhibition or displacement.

This test addresses T1, CB1R (Homo sapiens, UniProt P21554).
T1 construct: expressed in transfected cells; host or cells: HEK293 (ATCC), stably transfected; membrane preparation
Briefly: Competitive radioligand binding assay, [3H]-CP55,940, HEK293 membranes. The procedure:
HEK293 cells stably transfected with δ, κ, and μ opioid subtypes were a generous gift from Roth Laboratories (University of North Carolina at Chapel Hill, NC, USA). Opioid cells were maintained as previously described. Membranes were made by washing the cells with cold PBS. The cells were then scraped in cold 50 mM Tris-HCl, pH 7.4 buffer. The solution was centrifuged at 5200× g for 10 min at 4 °C. Next, the supernatant was discarded, and the pellet was washed with more Tris-HCl buffer, homogenized via Sonic Dismembrator (Fisher Scientific, Pittsburgh, PA, USA) and then centrifuged at 24,000× g for 40 min at 4 °C. […] The total membrane protein concentration was measured using a Pierce BCA Protein Assay Kit (Thermo Scientific, Rockford, IL, USA) as per the manufacturer’s protocol.
Cannabinoid and opioid competitive radioligand binding assays were performed as previously described. […] Percent displacements were evaluated for all the cannabinoid and opioid subtypes with a triplicate of a fixed concentration (10 µg/mL for extracts and fractions, 10 μM for purified compounds). […] Radiodetection was measured with 50 µL (cannabinoid) or 25 µL (opioid) MicroScint^TM-20 on a TopCount NXT HTS Microplate Scintillation Counter (PerkinElmer, Waltham, MA, USA). The IC50 and Ki values were calculated by a non-linear curve fit model using GraphPad Prizm 5.0 software (GraphPad Software Inc., San Diego, CA, USA). […]

As to `C=CCc1ccc(O)c(-c2ccc(OC)c(CC=C)c2)c1` [Compound 1, 4-O-methylhonokiol], the IC50 turned out to be 7.69 µM and the Ki is 3.85 ± 0.89 µM.
